The target in this assay is T1, sodium taurocholate cotransporting polypeptide (NTCP) (Homo sapiens, UniProt Q14973).
T1 sequence (Q14973 1-349): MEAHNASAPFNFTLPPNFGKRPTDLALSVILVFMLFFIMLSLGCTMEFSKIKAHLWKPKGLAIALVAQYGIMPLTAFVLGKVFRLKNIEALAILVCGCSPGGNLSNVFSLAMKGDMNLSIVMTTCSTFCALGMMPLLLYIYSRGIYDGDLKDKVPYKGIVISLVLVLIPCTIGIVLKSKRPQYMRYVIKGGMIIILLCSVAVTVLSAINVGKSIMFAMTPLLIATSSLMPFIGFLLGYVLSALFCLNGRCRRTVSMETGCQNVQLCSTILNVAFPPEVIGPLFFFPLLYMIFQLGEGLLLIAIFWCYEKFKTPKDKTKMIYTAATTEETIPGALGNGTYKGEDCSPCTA
The experiment in a line: cell-based. On the set-up: gene SLC10A1. Conditions: Huh-7, read-out: % inhibition at 75 μM %.

Structures are written as SMILES.

Turning to `Cc1c(C)c2c(c(C)c1O)CCC(C)(COc1ccc(CC3SC(=O)NC3=O)cc1)O2` (stereo not shown) [TGZ, Troglitazone], the inhibition (commonly how much of the control response was suppressed) at 75 µM was 96%.

Source of the values: article PMC10073475, “Effect of mTOR inhibitors on sodium taurocholate cotransporting polypeptide (NTCP) function in vitro” (Frontiers in Pharmacology, 2023).
